Reference: PubChem BioAssay AID2288 (National Center for Advancing Translational Sciences (NCATS), 2010)
Several values for one entry are separate records, joined by “and”; a condition that tells them apart may be missing. Identical values can stand only once. Only a part is listed here, and it is no random draw. Some tests of the compounds listed are not included; inactive here does not mean inactive elsewhere. Activity calls are given as the source filed them. The call rests on the fitted dose curve; in most records, active means well fitted curve in the direction sought with a large enough effect; inconclusive means small, poorly fitted or top-dose-only effect, or another doubt; inactive means no such curve, though single readings can be large or run the other way.

Assay: qHTS Assay for Modulators of miRNAs and/orActivators of miR-21;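 further: % of control where 0% means no effect; miR-21 action dims this reporter so a rising signal means less miR-21 action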
Conditions: HeLa miR-21 FLuc reporter, luciferase, 48 h; at 38.3 µM (top of the series)

Row | Structure (SMILES) | activity change, positive = activation
1 | COc1cc(C(=O)NCC2(N(C)C)CCCCC2)c([N+](=O)[O-])cc1OC | inactive: 0.896%
2 | CN(C)C1(CNC(=O)c2ccc(Br)cc2)CCCCC1 | inactive: -7.13%
3 | O=C(NCC1(N2CCCCC2)CCCCC1)c1cccc(Cl)c1 | inactive: 3.7%
4 | COc1ccc(Cl)cc1C(=O)NCC1(N(C)C)CCCCC1 | inactive: -0.86%
5 | COc1cccc(C(=O)NCC2(N3CCCCC3)CCCCC2)c1 | inactive: -3.93%
6 | COc1ccc(C(=O)NCC2(N(C)C)CCCCC2)cc1Cl | inactive: 0.521%
7 | CC(C)COc1ccc(C(=O)NCC2(N(C)C)CCCCC2)cc1 | inactive: -1.88%
8 | COc1cccc(C(=O)NCC2(N3CCOCC3)CCCCC2)c1 | inactive: -5.64%
9 | O=C(OC1CN2CCC1CC2)C(CO)(c1ccccc1)c1ccccc1 (centres undefined) | inactive: -5.05%
10 | CC(C)Oc1ccc(C(=O)NCC2(N(C)C)CCCCC2)cc1 | inactive: -7.24% and inactive: -1.8%
11 | CN(C)c1cccc(C(=O)NCC2(N(C)C)CCCCC2)c1 | inactive: -13.6%
12 | COc1ccc(Br)c(C(=O)NCC2(N3CCCCC3)CCCCC2)c1 | inactive: 2.03%
13 | Cc1cccc(C(=O)NCC2(N(C)C)CCCCC2)c1 | inactive: -6.8%
14 | COc1cc(C(=O)NCC2(N(C)C)CCCCC2)cc(OC)c1OC | inactive: -4.68%
15 | CN1[C@@H]2CC[C@H]1CC(OC(=O)C(O)(c1ccccc1)c1ccccc1)C2 (some centres undefined) | inactive: -0.791%
16 | O=C(NCC1(N2CCCCC2)CCCCC1)c1cc([N+](=O)[O-])ccc1Cl | inactive: -0.832%
17 | Cc1ccc(C(=O)NCC2(N3CCCCC3)CCCCC2)cc1 | inactive: 7.12%

Row | Structure (SMILES) | activity change, positive = activation
18 | CN(C)C1(CNC(=O)c2ccccc2F)CCCCC1 | inactive: 2.55%
19 | COc1cc(SC)ccc1C(=O)NCC1(N(C)C)CCCCC1 | inactive: -4.6%
20 | CCN(CC)CC(C)C(C)OC(=O)C(O)(c1ccccc1)c1ccccc1 (centres undefined) | inactive: 5.51%
21 | CN(C)C1(CNC(=O)c2cccc(Cl)c2)CCCCC1 | inactive: -3.91%
22 | CC(C)N1C(=O)CC2(CCN(CCOC(=O)C(O)(c3ccccc3)c3ccccc3)CC2)C1=O | inactive: 1.52%
23 | CCCCOc1ccccc1C(=O)NCC1(N(C)C)CCCCC1 | inactive: 2.53%
24 | CN(C)C1CCCC1OC(=O)C(O)(c1ccccc1)c1ccccc1 (centres undefined) | inactive: -1.3%
25 | CN(C)c1ccc(C(=O)NCC2(N(C)C)CCCCC2)cc1 | inactive: -8.67%
26 | CN(C)C1(CNC(=O)c2ccccc2[N+](=O)[O-])CCCCC1 | inactive: -2.06%
27 | Cc1ccccc1C(=O)NCC1(N2CCCCC2)CCCCC1 | inactive: -5.84%
28 | CCOc1cccc(C(=O)NCC2(N(C)C)CCCCC2)c1 | inactive: -3.49%
29 | COc1ccc(C(=O)NCC2(N(C)C)CCCCC2)cc1 | inactive: -0.237%
30 | O=C(NCC1(N2CCCCC2)CCCCC1)c1cccc(Br)c1 | inactive: 1.92%
31 | Cc1cc(C(=O)NCC2(N3CCCCC3)CCCCC2)ccc1[N+](=O)[O-] | inactive: 5.55%
32 | CCN1CCCC(OC(=O)C2(O)c3ccccc3C=Cc3ccccc32)C1 (centres undefined) | inactive: -8.54%
33 | O=C(NCC1(N2CCCCC2)CCCCC1)c1cc(F)c(F)cc1Cl | inactive: -5.08%
34 | C=CCN1CCN(CCOC(=O)C(O)(c2ccccc2)c2ccccc2)CC1 | inactive: 0.53%
